This is an account of results in patent publication US6696409 (PRINCE OF WALES MEDICAL RESEARCH INSTITUTE LIMITED POWMR, dated 2004).

Sequences of proteins named here, by UniProt entry; tags and fusion partners are left off. A change or cut given only in a name is not applied to a line headed by its entry.
UniProt P49146, whole entry: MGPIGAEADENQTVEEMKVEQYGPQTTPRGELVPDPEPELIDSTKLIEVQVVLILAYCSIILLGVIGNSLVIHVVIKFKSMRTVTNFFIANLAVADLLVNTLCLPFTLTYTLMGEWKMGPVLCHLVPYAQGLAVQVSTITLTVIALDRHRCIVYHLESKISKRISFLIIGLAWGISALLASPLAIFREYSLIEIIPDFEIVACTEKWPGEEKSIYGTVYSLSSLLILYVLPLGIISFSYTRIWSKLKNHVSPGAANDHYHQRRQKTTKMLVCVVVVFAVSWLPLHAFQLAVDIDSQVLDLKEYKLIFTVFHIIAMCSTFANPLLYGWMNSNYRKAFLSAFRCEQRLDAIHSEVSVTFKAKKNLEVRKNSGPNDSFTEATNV

In test [1] the target is T1, human neuropeptide Y Y2 receptor on SMS-MSN cells (human, UniProt P49146 1-381).
T1 construct: whole, on cells; also called NPY Y2 receptor; SMS-MSN (Y2)
Description: competition with 30 pM [125I]NPY on SMS-MSN cells (human Y2), filtration.

The target of test [2] is Y2-like receptors in anaesthetised rats (rat). Description: cell-based or functional assay.

B1: AcNPY24-36 (peptide, UniProt P01303 52-64, looked up)
peptide: LRHYINLITRQRY
modifications: N-terminal acetyl (Ac); C-terminal amide
notes: range 24-36; Residues 24-36 count on mature NPY, not on the precursor entry
For the molecule B1, the half-maximal inhibitory concentration (IC50) in test [1] worked out at 500 pM. The “EC50 of the change in pulse interval (PI %), vagal stimulation in anaesthetised rats” value in test [2] was 3.98 nmol.

A word on the IC50: it is the point on the concentration scale where inhibition reaches its midpoint. Lower therefore signals inhibition by little substance.
